Test: Binding to plasmatic proteins
Settings: plasma

OCC[N+]1(Cc2ccc(I)cc2)CCCC1 [Example 20, 1-(2-hydroxyethyl)-1-(4-iodobenzyl)pyrrolidin-1-ium 4-methylbenzenesulfonate]
fraction unbound: 0.921

Source: patent EP3423441B1, “IODINATED ANALOGS OF CHOLINE, METHODS OF PREPARATION THEREOF, AND USE THEREOF AS MEDICAMENTS” (Univerzita Palackého v Olomouci, priority 2016, dated 2017)
